{"source": "patent US8507529B2", "about": "“Methods of using a nitroxide antioxidant in cosmetic and dermatological compositions” (Jarrow Formulas, Inc., priority 2005, dated 2013)", "experiment": "Peroxidation of multilamellar phosphatidylcholine (PC) liposomes induced by UVA, TBA assay (TBARS)", "details": "100 μM compound, 3.5 mM PC liposomes, 275 kJ/m^2 UVA, TBARS at 535 nm, FIG. 4", "data": [{"smiles": "CC1(C)CC(O)CC(C)(C)N1[O]", "note": "[TEMPOL, 4-hydroxy-2,2,6,6,-tetramethyl-piperidine-1-oxyl]", "values": [{"measurement": "inhibition of UVA-induced lipid peroxidation", "value": "~60", "unit": "%"}]}]}
